Source: patent US20210236512A1 (ZARODEX THERAPEUTICS LIMITED, priority 2018, published 2021)

Tested on: circulating immunoglobulins (IgG1, IgG2a, IgG2b, IgG3, IgA, IgM, kappa, lambda)
Assay: Wild type mouse study: circulating immunoglobulin profile by ELISA

| Compound | Circulating IgA levels compared to control (5 and 10 mg/kg IP, 21 days) | Other circulating immunoglobulin isotype classes (under the experimental conditions used) | Reduction in circulating IgA levels (haloperidol 1 mg/kg) |
| --- | --- | --- | --- |
| CN1CCN(C2=Nc3cc(Cl)ccc3Nc3ccccc32)CC1 [Clozapine, clozapine] | reduction | No other isotype classes were affected |  |
| O=C(CCCN1CCC(O)(c2ccc(Cl)cc2)CC1)c1ccc(F)cc1 [Haloperidol, haloperidol] |  |  | not observed |
